# Data from US5204327A, “Treatment of cerebral edema with ANP pharmaceutical compositions” (Ashi Kasei Kogyo Kabushiki Kaisha, priority 1988, dated 1993).
# Assays:
# [1] = tested on: ischemic cerebral edema caused by occlusion of middle cerebral artery; assay: Effect on experimental ischemic cerebral edema (MCA occlusion, Tamura model); format: in vivo, male Wistar rats; conditions: rats
# Description: Using 41 male Wistar rats weighing 250 to 350 g, model animals of ischemic cerebral edema caused by occlusion of middle cerebral artery (hereinafter referred to as "MCA") were prepared according to the method of Tamura et al. (Journal of Cerebral Blood Flow and Metabolism, 1, 53-69 (1981)).
# Peptide (II) obtained in Reference Example 1 was diluted with a physiological saline so that the peptide concentration became 100 μg/10 ml. The solution containing the peptide was continuously administered to eleven rats through the tail vein thereof in an amount of 10 ml per kg of body weight in 20 min so that the total dose of the administered peptide became 100 μg per kg of body weight.
# The administration was conducted 6 times according to the following program. The first administration was conducted 30 minutes after the occlusion of MCA. The second administration was conducted in the morning of the next day of the first administration (2nd day). The third administration was conducted after 6 hours from the second administration. The fourth administration was conducted in the morning of the next day of the third administration (3rd day). […]
# After one hour from the sixth administration, that is, 3 days after the rats had been subjected to occlusion of MCA, the rats were sacrificed. […] The water content of each of the hemispheres was measured.
# The water content of a brain tissue was calculated by the following formula: [formula] wherein: W1 : weight of the cerebral hemisphere (wet basis)
# W2 weight of the cerebral hemisphere (dry basis), which is measured after drying the wet cerebral hemisphere at 95° to 100° C. for 3 days.
# The water contents calculated were statistically analyzed by the T-test to determine whether or not there is a significant difference between the water content of each of the groups to which peptide (II), peptide (III) and glycerol were individually administered and the water content of the control group to which physiological saline was administered. […]
# [2] = tested on: cynomolgus monkeys; assay: Acute toxicity in cynomolgus monkeys; format: in vivo; conditions: single i.v. 0.5, 1.5 and 5.0 mg/kg
# Description: Peptide (II) having a purity of 98.3% which was obtained in Reference Example 1 was dissolved in a physiological saline to prepare three preparations 1, having peptide (II) concentrations of 0.1 mg/ml, 0.3 mg/ml and 1.0 mg/ml, respectively. As a control, the physiological saline was used.
# Approximately 3 to 6 year-old cynomolgus monkeys of both sexes were purchased from American Charles River Research Primates, Ltd., U.S.A. The animals were bred for approximately 6 months and then observed one week during quarantine and acclimation. From the purchased monkeys, 6 male monkeys and 6 female monkeys (males weighing 2.31 to 4.22 kg and females weighing 2.45 to 2.66 kg) which were healthy and in good condition in respect of both the clinical signs and the body weight gain were selected from the purchased monkeys and used for the following experiment.
# The selected monkeys were divided at random into three groups each consisting of two males and two females.
# Each of the above-prepared three test drug solutions containing peptide (II) at concentrations of 0.1 mg/ml, 0.3 mg/ml and 1.0 mg/ml, respectively, was individually administered at one time to the monkeys of the three groups at a dosage of 5 ml/kg of body weight. That is, the peptide was administered to the monkeys of the three groups at dosages of 0.5 mg/kg, 1.5 mg/kg and 5.0 mg/kg of body weight, respectively. To the monkeys of the remaining group, physiological saline was administered as a control at a dosage of 5 ml/kg of body weight. The administration of each of the test drug solutions and the physiological saline was conducted through the median antebrachial vein of each monkey at an administration rate of 10 ml/min.
# The amounts of the food supplied and the food remaining were measured daily by means of a balance, and the food consumption per animal was calculated.
# The body weight of each animal was measured by means of a balance at a time between 2 p.m. and 4 p.m. daily.
# The animals were exsanguinated under sodium pentobarbital anesthesia on the day after the two-week observation period. Then, various organs and tissues of the animals were observed by gross autopsy.
# The weights of various organs of the animals were measured by means of an electronic balance.
# [3] = 3 days after MCA occlusion, peptide 100 μg/kg (glycerol 1 g/kg) tail vein, 6 administrations
smiles,measurement,setting,value
CC[C@H](C)[C@@H]1NC(=O)[C@H](CCCNC(=N)N)NC(=O)[C@H](CC(=O)O)NC(=O)[C@H]([C@@H](C)CC)NC(=O)[C@H](CCCNC(=N)N)NC(=O)CNC(=O)CNC(=O)[C@H](Cc2ccccc2)NC(=O)[C@@H](NC(=O)[C@H](CO)NC(=O)[C@H](CO)NC(=O)[C@H](CCCNC(=N)N)NC(=O)[C@H](CCCNC(=N)N)NC(=O)[C@H](CC(C)C)NC(=O)[C@@H](N)CO)CSSC[C@@H](C(=O)N[C@@H](CC(N)=O)C(=O)N[C@@H](CO)C(=O)N[C@@H](Cc2ccccc2)C(=O)N[C@@H](CCCNC(=N)N)C(=O)N[C@@H](Cc2ccc(O)cc2)C(=O)O)NC(=O)CNC(=O)[C@H](CC(C)C)NC(=O)CNC(=O)[C@H](CO)NC(=O)[C@H](CCC(N)=O)NC(=O)[C@H](C)NC(=O)CNC1=O [Peptide (II)],"Water content of brain tissue (the mean ± standard error), hemisphere having ischemic part",[1]; [3],79.34 ± 0.15
same,"Water content of brain tissue (the mean ± standard error), hemisphere having no ischemic part",[1]; [3],78.51 ± 0.15
same,"increase in water content of the cerebral hemisphere having ischemic part, compared to physiological saline-administered group","[1]; MCA occlusion, T-test",significantly inhibited
same,Organ weight,[2]; after two-week observation,No remarkable change
same,Patho-anatomical examination,[2]; gross autopsy after two-week observation,No remarkable change
same,Change in body weight,[2]; two-week observation,No remarkable change
same,Clinical signs,[2]; two-week observation,No remarkable change
same,Clinical signs: death of animals,[2]; two-week observation,No dead animal
same,Food consumption,[2]; two-week observation,No remarkable change
